Assay results: patent US11104664B2, “4,5,6-trisubstituted indazole derivatives, and preparation method and pharmaceutical use thereof” (SHANGHAI HAIYAN PHARMACEUTICAL TECHNOLOGY CO., LTD., priority 2016, dated 2021)

By UniProt entry, the sequences of proteins in these tests, tags left out.
UniProt Q15910, whole entry Y641F: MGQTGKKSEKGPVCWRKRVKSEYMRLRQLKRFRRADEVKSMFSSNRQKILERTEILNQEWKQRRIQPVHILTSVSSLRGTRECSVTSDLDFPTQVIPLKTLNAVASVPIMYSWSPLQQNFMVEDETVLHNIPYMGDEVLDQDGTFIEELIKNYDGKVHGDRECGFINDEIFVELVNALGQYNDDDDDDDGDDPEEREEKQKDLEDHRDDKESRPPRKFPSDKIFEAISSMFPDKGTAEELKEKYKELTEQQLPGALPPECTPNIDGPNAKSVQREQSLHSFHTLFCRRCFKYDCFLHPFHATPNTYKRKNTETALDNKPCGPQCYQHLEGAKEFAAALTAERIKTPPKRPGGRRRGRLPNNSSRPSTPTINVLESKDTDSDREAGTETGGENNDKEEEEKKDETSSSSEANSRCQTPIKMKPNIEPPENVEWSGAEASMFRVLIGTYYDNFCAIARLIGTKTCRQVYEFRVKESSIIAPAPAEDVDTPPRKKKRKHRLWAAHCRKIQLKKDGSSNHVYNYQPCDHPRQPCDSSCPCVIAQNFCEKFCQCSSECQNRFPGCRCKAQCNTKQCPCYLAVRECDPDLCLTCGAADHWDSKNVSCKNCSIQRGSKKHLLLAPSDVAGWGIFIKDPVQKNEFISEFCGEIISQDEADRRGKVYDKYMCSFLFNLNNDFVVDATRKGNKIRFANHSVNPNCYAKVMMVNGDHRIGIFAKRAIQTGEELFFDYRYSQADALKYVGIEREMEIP
UniProt Q6ZN18, whole entry partner: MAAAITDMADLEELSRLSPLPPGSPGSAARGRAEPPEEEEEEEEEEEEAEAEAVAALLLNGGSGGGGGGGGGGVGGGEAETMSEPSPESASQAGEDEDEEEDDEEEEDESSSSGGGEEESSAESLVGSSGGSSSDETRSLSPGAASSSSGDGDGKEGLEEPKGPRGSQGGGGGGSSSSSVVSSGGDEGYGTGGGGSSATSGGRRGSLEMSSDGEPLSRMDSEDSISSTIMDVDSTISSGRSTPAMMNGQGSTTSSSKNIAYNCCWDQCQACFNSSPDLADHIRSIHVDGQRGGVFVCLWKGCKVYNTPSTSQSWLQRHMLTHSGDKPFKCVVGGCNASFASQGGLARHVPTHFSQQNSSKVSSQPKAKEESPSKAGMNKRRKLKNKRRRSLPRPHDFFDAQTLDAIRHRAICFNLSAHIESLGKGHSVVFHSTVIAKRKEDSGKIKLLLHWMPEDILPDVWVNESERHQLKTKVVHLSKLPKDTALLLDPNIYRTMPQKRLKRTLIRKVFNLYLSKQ
UniProt Q15022, whole entry partner: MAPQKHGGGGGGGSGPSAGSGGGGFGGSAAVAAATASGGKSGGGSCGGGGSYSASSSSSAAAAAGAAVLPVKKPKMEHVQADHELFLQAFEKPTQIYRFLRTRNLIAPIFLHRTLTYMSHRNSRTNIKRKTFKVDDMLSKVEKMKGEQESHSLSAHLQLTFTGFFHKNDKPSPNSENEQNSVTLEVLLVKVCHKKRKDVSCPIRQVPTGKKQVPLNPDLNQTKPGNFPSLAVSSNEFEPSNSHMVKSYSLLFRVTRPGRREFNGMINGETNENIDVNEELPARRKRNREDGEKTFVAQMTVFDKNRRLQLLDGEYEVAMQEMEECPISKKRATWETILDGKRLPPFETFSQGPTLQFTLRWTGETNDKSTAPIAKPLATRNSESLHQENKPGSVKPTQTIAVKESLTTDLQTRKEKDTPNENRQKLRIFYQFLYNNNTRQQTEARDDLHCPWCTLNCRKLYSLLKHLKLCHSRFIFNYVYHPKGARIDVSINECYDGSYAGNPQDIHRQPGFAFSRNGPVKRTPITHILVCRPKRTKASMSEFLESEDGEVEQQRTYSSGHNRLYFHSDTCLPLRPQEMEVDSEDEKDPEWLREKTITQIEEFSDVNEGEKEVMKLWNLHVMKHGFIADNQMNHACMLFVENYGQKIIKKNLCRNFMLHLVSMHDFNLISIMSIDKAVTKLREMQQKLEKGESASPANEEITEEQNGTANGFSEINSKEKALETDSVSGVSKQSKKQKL
UniProt O75530, whole entry partner: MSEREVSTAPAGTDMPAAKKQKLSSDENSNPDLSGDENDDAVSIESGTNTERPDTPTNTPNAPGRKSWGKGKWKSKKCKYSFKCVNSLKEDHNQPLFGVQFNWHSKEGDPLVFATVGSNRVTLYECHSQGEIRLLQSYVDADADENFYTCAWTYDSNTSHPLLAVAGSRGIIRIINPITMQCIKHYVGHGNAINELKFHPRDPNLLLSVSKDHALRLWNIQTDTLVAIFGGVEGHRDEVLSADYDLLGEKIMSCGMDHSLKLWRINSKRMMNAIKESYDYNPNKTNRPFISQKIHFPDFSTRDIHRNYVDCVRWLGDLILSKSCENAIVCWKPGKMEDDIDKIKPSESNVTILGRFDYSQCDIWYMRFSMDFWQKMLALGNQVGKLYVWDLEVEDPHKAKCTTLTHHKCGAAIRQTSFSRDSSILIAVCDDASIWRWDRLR
UniProt Q09028, whole entry partner: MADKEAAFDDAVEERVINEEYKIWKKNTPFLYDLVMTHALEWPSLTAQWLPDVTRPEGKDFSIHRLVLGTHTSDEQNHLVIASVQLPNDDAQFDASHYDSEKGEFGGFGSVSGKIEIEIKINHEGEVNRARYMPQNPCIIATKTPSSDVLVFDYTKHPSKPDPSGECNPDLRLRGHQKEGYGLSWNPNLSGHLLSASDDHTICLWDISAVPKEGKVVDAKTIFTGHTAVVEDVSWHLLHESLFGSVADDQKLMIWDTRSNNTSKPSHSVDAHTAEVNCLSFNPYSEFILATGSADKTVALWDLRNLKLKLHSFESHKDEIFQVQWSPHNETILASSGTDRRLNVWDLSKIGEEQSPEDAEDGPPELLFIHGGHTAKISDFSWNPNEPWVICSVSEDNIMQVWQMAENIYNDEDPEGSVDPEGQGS

Experiments:
Pfeiffer cells = assay: Cell proliferation assay (Cell counting kit-8, 6 days); settings: read-out: Pfeiffer IC50; Pfeiffer (CRL-2632), 6 days culture
Protocol: The used cell lines Pfeiffer (CRL-2632), suDHL-6 (CRL-2959) and suDHL-10 (CRL-2963) were obtained from American Type Culture Collection (ATCC). All cell lines were cultured in RPMI-1640 medium (Gibco) containing 10% fetal bovine serum (Gibco). The cultured cells were harvested by centrifugation and the cell density was determined using a CounterStar cell counter. Appropriate number of cells were plated in a 96-well culture plate and incubated overnight. Compounds to be tested were diluted by 8 gradient points in a ratio of 1:3 and added into corresponding wells. After continuing to culture for 6 days, the number of viable cells was measured with Cell counting kit-8, and the absorbance value was read on Tecan infinite pro. The IC50 was calculated by fitting in a four-parameter model in the XLfit software.

[1] = target: Recombinant PRC2 (EZH2-Y641F) (Homo sapiens (Human), UniProt Q15910, Y641F); assay: In vitro methyltransferase activity assay (LANCE Ultra); settings: read-out: EZH2 Y641F IC50; 2.5 μM SAM/250 nM H3(1-50)K27me1, 3 hours, room temperature
Protocol: Recombinant PRC2 (EZH2-Y641F) was purchased from Active motif, S-adenosyl-methionine (SAM) and Poly-L-lysine (PLL) were purchased from Sigma-Aldrich, and H3(1-50)K27me1 peptide was purchased from Cisbio. LANCEUltrasystem (Perkinelmer) was used for detection system. In the enzyme activity test, compounds to be tested were diluted by 8 gradient points in a ratio of 1:3, and added into each well in a reaction plate, and 100 ng recombinase was added, followed by a buffer [20 mM Tris pH8.5, 2 mM MgCl2, 0.01% Tween-20, 1 mM TCEP] containing 2.5 μM SAM/250 nM H3 (1-50)K27me1 premixtures. Enzymatic reaction thus began at room temperature. After reacted for 3 hours, a detection solution premixed with PLL, detection antibody and Ulight was added, and reacted for 1 hour at room temperature. The fluorescence value was then read on a Tecan infinite pro. IC50 was calculated by fitting in a four-factor model in the XLfit software.

## CCN(c1cc(C(=O)NCc2c(C)cc(C)[nH]c2=O)c(C)c2c1cnn2C)C1CCC(N(C)C)CC1 (stereo not drawn)
Pfeiffer cells
  IC50: > 3000 nM

## CCN(c1cc(C(=O)NCc2c(C)cc(C)[nH]c2=O)c(C)c2c1cnn2C)C1CCC(N2CC(OC)C2)CC1 (stereo not drawn)
Pfeiffer cells
  IC50: > 3000 nM
[1]
  IC50: > 10000 nM
